# Laboratory results as given in PubChem BioAssay AID833 (The Scripps Research Institute Molecular Screening Center, 2007).
# Amino acid sequences for entries named in this document (tags omitted). A change or cut given only in a name is not applied to a line headed by its entry.
# UniProt O08726: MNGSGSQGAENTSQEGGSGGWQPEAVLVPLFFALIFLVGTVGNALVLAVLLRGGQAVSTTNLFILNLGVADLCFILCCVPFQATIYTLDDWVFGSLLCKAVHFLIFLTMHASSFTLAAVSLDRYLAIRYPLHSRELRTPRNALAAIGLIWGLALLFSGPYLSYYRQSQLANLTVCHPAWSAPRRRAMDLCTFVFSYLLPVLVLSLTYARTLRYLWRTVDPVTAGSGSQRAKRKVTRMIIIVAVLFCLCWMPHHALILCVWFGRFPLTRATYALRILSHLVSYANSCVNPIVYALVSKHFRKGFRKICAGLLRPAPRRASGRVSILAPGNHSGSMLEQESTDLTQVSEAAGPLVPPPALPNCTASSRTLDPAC
# This is a selection; strong and weak results do not stand in their true shares. Active and inactive are the calls of the source. Rule as the data show it: active = activation above about 15%; inactive = the rest.
# Target: Galanin receptor type 2 (Rattus norvegicus) (UniProt O08726)
# Assay: agonists of rat galanin receptor 2 (GALR2) (AID 833)
# Conditions: cell-based GALR2 agonist screen; at 10 µM; active compounds read high
row,Structure (SMILES),activation
1,CCOC(=O)/C(=N/Nc1ccc([N+](=O)[O-])cc1)N1CC1,inactive: -7.58%
2,O=C(OC1CN2CCC1CC2)c1cccc([N+](=O)[O-])c1 (configuration not stated),inactive: -6.96%
